Test results reported in patent publication US7671165B2, “Method of forming polycarbonate” (Sabic Innovative Plastics IP B.V., priority 2008, dated 2010).

Test: Solubility of catalysts in MS and co-solvents
Details: 2.47 wt %; 0.3 g; 10.0 ml MS, no co-solvent

CC(=O)[O-].CCCC[N+](CCCC)(CCCC)CCCC [Tetra Butyl Ammonium Acetate]
Solubility of catalyst, T (room): Dissolved
